Results taken from patent publication US6375634B1, “APPARATUS AND METHOD TO ENCAPSULATE, KILL AND REMOVE MALIGNANCIES, INCLUDING SELECTIVELY INCREASING ABSORPTION OF X-RAYS AND INCREASING FREE-RADICAL DAMAGE TO RESIDUAL TUMORS TARGETED BY IONIZING AND NON-IONIZING RADIATION THERAPY” (Oncology Innovations, Inc., priority 1997, dated 2002).

Settings: in vivo

For iron dextran, the “therapeutic to toxic ratio” value was 10 to 1.
